Experimental data taken from patent publication US12606546B2, “Small molecule inhibitors of calcium channel activity and uses thereof” (Arizona Board of Regents on Behalf of the University of …, priority 2020, dated 2026).

Chains of the proteins cited; added tags and fusions are not shown.
UniProt P35372, whole entry: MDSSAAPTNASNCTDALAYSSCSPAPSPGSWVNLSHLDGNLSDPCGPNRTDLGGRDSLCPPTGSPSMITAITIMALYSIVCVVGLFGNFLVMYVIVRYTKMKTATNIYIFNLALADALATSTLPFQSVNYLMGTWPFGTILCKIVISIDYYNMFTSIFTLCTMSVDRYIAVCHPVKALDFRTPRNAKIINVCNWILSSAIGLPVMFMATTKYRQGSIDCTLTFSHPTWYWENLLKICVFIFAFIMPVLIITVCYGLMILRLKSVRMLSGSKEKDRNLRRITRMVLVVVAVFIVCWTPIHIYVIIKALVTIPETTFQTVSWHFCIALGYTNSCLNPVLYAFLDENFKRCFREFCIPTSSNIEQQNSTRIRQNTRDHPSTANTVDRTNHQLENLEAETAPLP
UniProt P41143, whole entry: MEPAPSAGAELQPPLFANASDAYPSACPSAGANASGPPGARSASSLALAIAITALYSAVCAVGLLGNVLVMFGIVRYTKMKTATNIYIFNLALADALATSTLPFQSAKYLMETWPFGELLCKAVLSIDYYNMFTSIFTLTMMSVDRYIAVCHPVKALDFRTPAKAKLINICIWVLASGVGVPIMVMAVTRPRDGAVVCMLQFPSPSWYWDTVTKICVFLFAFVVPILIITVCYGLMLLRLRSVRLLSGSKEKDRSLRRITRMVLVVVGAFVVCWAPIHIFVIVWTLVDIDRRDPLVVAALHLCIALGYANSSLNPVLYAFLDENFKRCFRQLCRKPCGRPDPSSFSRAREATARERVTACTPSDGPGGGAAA

Legend:
Settings in all cases: CHO cells
[1] = target: human kappa opioid receptor (KOR) (Homo sapiens, UniProt P41145); test: Competition radioligand binding vs 3H-diprenorphine, KOR
[2] = target: human mu opioid receptor (MOR) (Homo sapiens, UniProt P35372); test: Competition radioligand binding vs 3H-diprenorphine, MOR
[3] = target: human delta opioid receptor (DOR) (Homo sapiens, UniProt P41143); test: Competition radioligand binding vs 3H-diprenorphine, DOR

C[C@@H](c1ccccc1)n1nnnc1[C@@H](c1ccsc1)N1CCC(n2c(=O)[nH]c3ccccc32)CC1
concentration up to which no binding to the opioid receptor, KOR [1]: > 10 Mm
concentration up to which no competition binding was produced, KOR [1]: > 10 µM
Ki, KOR ([1]; n=3): 5bk was reported as “Not Converged”
concentration up to which no binding to the opioid receptor, MOR [2]: > 10 Mm
concentration up to which no competition binding was produced, MOR [2]: > 10 µM
Ki, MOR ([2]; n=3): 5bk was reported as “Not Converged”
concentration up to which no binding to the opioid receptor, DOR [3]: > 10 Mm
concentration up to which no competition binding was produced, DOR [3]: > 10 µM
Ki, DOR ([3]; n=3): 5bk was reported as “Not Converged”
